ChEMBL document CHEMBL4118239, “Novel leucine ureido derivatives as aminopeptidase N inhibitors using click chemistry” (Bioorg Med Chem, 2018)

Target: T1, Aminopeptidase N (Sus scrofa) (UniProt P15145)
T1 sequence (whole entry): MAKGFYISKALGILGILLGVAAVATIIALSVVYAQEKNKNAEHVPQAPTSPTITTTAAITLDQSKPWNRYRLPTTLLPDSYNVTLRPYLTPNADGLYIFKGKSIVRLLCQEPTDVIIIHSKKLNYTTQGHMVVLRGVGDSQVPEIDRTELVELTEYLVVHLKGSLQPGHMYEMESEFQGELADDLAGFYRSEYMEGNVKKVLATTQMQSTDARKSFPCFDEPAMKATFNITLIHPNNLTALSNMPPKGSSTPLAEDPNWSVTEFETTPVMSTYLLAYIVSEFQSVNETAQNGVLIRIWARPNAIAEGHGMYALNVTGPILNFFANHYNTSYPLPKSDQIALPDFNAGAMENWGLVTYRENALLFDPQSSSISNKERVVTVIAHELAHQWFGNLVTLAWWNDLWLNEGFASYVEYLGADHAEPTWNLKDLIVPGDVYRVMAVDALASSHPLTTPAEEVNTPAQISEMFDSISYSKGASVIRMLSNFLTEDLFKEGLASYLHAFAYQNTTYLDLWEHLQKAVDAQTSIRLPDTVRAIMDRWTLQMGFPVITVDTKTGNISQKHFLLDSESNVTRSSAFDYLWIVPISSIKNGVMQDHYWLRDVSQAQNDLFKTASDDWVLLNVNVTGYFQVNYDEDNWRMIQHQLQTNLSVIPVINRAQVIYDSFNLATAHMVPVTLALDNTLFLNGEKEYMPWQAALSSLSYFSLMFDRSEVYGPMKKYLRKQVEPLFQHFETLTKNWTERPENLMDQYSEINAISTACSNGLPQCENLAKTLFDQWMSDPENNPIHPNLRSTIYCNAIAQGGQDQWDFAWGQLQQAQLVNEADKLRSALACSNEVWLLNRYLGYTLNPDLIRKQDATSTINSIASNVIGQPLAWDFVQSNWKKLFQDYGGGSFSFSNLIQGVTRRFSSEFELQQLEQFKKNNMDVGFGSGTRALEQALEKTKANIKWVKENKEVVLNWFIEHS
Test: Potency index, ratio of bestatin IC50 to compound IC50 for APN in porcine kidney microsomes

CC(C)C[C@H](NC(=O)NCc1cn(Cc2ccccc2OCc2ccccc2)nn1)C(=O)NO
Ratio IC50: > 100
